{"source": "patent US11613587B2", "about": "“Combination therapy of T cell activating bispecific antigen binding molecules and PD-1 axis binding antagonists” (Hoffmann-La Roche Inc., priority 2014, dated 2023)", "system": "TIM-3 pathway in PBMCs", "assay": "Mixed lymphocyte reaction (MLR), IFN-gamma secretion", "type": "cell-based, human", "details": "compound concentration 10 μg/ml, 6 days", "experimental": "T cells in the assay were tested for activation and theier IFN-gamma secretion in the presence or absence of an anti-TIM-3 mAbs.\nHuman Lymphocytes were isolated from peripheral blood of healthy donor by density gradient centrifugation using Leukosep (Greiner Bio One, 227 288). Briefly, heparinized blood were diluted with the three fold volume of PBS and 25 ml aliquots of the diluted blood were layered in 50 ml Leukosep tubes. After centrifugation at 800×g for 15 min at room temperature (w/o break) the lymphocyte containing fractions were harvested, washed in PBS and used directly in functional assay or resuspended in freezing medium (10% DMSO, 90% FCS) at 1.0E+07 cells/ml and stored in liquid nitrogen. […] The levels of IFN-gamma were measured using OptEIA ELISA kit (BD Biosciences).", "data": [{"substance": "IL-2: rec hu IL-2 (20 EU/ml), positive control in MLR (=100%)", "values": [{"measurement": "Percentage induced IFNgamma release in comparison to rec hu IL-2 (20 EU/ml) (=100%)", "value": 100, "unit": "%"}]}]}
